The subject of one test is K^+ transport. In words: K^+ transport: ^86 Rb uptake by P3 membrane fractions of whole mouse brain. It counts as biochemical, Swiss mice.
Another test has as its target T1, Acetylcholinesterase (Electrophorus electricus, UniProt O42275).
T1 construct: The enzyme employed was prepared from the electric organ of the electric eel; from tissue; host or cells: electric organ of the electric eel
In words: Acetylcholinesterase activity, acetylthiocholine substrate, colorimetric (Ellman). It counts as biochemical, electric eel.

The chains behind the UniProt entries cited, without tags or fusion partners. Residues count along the entry.
UniProt O42275, 24-633: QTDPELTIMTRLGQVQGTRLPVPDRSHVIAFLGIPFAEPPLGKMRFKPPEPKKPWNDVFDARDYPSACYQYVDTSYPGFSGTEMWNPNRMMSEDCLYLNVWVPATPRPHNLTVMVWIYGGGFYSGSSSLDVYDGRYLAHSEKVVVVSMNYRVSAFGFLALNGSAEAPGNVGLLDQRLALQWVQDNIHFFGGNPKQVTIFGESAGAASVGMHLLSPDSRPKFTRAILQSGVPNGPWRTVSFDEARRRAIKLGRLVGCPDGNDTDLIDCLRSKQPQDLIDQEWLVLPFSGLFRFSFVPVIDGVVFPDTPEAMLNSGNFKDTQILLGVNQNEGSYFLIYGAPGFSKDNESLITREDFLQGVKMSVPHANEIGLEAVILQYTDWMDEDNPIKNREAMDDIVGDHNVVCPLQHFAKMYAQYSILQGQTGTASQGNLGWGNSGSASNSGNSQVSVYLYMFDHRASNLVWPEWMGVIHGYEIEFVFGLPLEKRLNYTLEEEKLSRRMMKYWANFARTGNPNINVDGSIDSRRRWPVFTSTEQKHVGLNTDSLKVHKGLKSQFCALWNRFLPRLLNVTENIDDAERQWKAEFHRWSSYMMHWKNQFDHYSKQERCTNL

Regarding `Nc1c2ccccc2nc2ccccc12` [9-aminoacridine], the “K^+ transport inhibition activity relative to amodiaquin (in words)” value with K^+ transport (fraction of amodiaquin's activity) was “approximately one-half”. Moreover, in the test on K^+ transport (relative to amodiaquin = 1), the “K^+ Transport Relative Potency” value is 0.57. Also, the “Concentration inhibiting K^+ transport (selection criterion met)” value with K^+ transport (submillimolar concentrations) is ≤ 10^-3 M. In addition, the midpoint of inhibition against Acetylcholinesterase, the IC50, lay at 45 nM. Also, the “Cholinesterase inhibitory potency relative to amodiaquin (in words)” value on Acetylcholinesterase (fraction of amodiaquin's inhibitory potency) is given as “less than one-tenth”. Also, on Acetylcholinesterase (micromolar or lower concentrations), the “Concentration inhibiting acetylcholinesterase (selection criterion met)” value is given as ≤ 10^6 M. The “Acetylcholinesterase Activity Rank Order” value on Acetylcholinesterase (rank among the five substances) is reported as 2. For the same compound, the “Acetylcholinesterase Activity Relative Potency” value at Acetylcholinesterase (relative to amodiaquin = 1) turned out to be 0.089.

For orientation: IC50 means the concentration needed to halve the response being measured.

Values taken from US4806537A (City of Hope, priority 1988, dated 1989).
